Test results: article PMC8882856

Chains of the proteins cited; added tags and fusions are not shown.
UniProt P08588, whole entry: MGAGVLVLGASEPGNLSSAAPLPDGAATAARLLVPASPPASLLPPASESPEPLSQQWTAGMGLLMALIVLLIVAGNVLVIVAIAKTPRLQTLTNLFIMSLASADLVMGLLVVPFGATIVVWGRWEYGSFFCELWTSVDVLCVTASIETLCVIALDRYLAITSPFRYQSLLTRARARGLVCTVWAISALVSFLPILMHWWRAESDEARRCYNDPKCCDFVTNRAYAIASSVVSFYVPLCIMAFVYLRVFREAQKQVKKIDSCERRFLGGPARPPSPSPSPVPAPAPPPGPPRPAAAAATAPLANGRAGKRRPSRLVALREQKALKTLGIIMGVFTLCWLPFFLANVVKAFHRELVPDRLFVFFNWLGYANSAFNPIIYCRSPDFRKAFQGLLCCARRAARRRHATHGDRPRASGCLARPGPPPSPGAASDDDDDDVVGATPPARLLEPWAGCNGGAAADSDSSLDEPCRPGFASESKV

Biological target: human β1‐adrenoceptor (Homo sapiens, UniProt P08588)
Conditions: ^3H‐CGP12177 whole cell binding; log values, mean ± s.e.mean; ^app = apparent KD; 'no binding to' = log top concentration

COc1cccc2c1CCC[C@H]2CN(C)CCc1ccc2ccoc2c1 [A80426]
Log KD β1: −6.03 ± 0.05
